The text below walks through data of ChEMBL document CHEMBL6134838, “Discovery of c-Kit as a New Therapeutic Target in LPS-Induced Acute Lung Injury through Novel Phenylamide Derivative D9” (J Med Chem, 2025).

Molecules are shown by their SMILES.

Data set [1] in a line: Cytotoxicity against mouse J774.A1 cells assessed as survival rate at 10 uM measured for 48 hrs by MTT assay relative to control.
A short description of data set [2]: in vivo. To be noted: Sprague-Dawley, rat, po, 2 mg/kg.
Data set [3] in a line: in vivo. To be noted: Sprague-Dawley, rat, po, 2 mg/kg. This is another data set of the same source.
The subject of a further data set is J774.A1. The data set is described as follows: cells. To be noted: Mus musculus, J774.A1, 24 h.
Data set [4] is described as follows: in vivo. Particulars: Sprague-Dawley, rat, po, 2 mg/kg. The source holds these as a separate data set.
The nature of data set [5]: in vivo. To be noted: Sprague-Dawley, rat, iv, 1 mg/kg.
The species named for the next data set is Mus musculus. The data set is described as follows: animal or person. To be noted: C57BL/6, po, 169 h.
Data set [6] can be described thus: in vivo. Particulars: Sprague-Dawley, rat, iv, 1 mg/kg. This is another data set of the same source.

With `O=C(NCCc1cccs1)c1cc(Oc2ccc(NC(=O)c3cn(-c4ccc(F)cc4)c4ccccc4c3=O)cc2)ccn1`, the viability at 48 h, 10 µM in data set [1] was > 100%. Also, the bioavailability at 24 h in the data set “in vivo [2]” came to 8.4%. Further, the half-life at 24 h in “in vivo [3]” is 3.61 h; in “in vivo [6]”, 1.92 h. Further, the half-maximal inhibitory concentration (IC50) in the data set on J774.A1 came to 3 µM. Further, the AUC at 24 h in “in vivo [4]” came to 2180 ng·h/mL; in the data set “in vivo [5]” it was 13000 ng·h/mL. Also, the survival at 20 mg/kg in the data set listed under Mus musculus was 75%.
